Only a part is listed here, and it is no random draw. Some tests of the compounds listed are not included; inactive here does not mean inactive elsewhere. Calls of active or inactive are those of the source.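 How the source made its calls: active means maximum activity change below -70%; inconclusive means maximum activity change from -70% to -50%; inactive means maximum activity change above -50%.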
Tested on: Potassium voltage-gated channel subfamily H member 2, brain isoform KCNH2 3.1 (human)
Experiment: qHTS for Inhibitors of KCHN2 3.1: Mutant qHTS
Conditions: U2OS KCNH2 3.1, thallium flux FluxOr; stronger effect = lower value
Description: Many antipsychotic drugs that inhibit the neurotransmitter dopamine also bind to hERG1 channel which might help explain their antipsychotic activity but also produces cardiac side effects. The discovery of the novel KCNH2 3.1 isoform offers a potential new target for the development of antipsychotic drugs without cardiac side effects. This proposal will use a high throughput thallium flux assay developed for KCNH2 to screen compounds that modulate the activity of KCNH2 3.1. The wild type KCNH2 channel will also be screened in parallel to help define the selective modulators of this KCNH2 3.1 potassium channel. The resulting compounds will be validated in electrophysiology experiments. The availability of animal models will allow future testing in vivo for effects on memory and other aspects of animal physiology linked with psychosis. NIH Chemical Genomics Center [NCGC] NIH Molecular Libraries Probe Centers Network [MLPCN] MLPCN Grant: MH096539 Assay Submitter (PI): James Barrow, Johns Hopkins University, Lieber Institute for Brain Development
U2OS cells were resuspended in cell media containing 10% fetal calf serum (FCS) at a concentration of 2 million cells / mL. The solution was treated with the mutant (3.1) virus at 1.77 x 10^8 / mL and allowed to incubate at room temperature in the dark. After 4 hours of incubation, DMEM + 10% fetal bovine serum (FBS) was added to the cell solution. Three microliter was then dispensed into a 1536 tissue culture treated black assay plates which were incubated overnight at 37 C. Two microliter of loading buffer (HBSS + HEPES + Red40 dye quencher + FluxOr dye) was added and the assay plates were incubated for 45 min at room temperature in the dark. […] A stimulation buffer was added to the plate and the second kinetic read (2 min) was obtained. The rate constant was calculated from the kinetic reads and normalized to the positive and negative DMSO controls.
On the % scale 0 is the no-effect control and ±100 the full control effect.

SMILES | activity change
CCN(CC)CC(C)C(C)OC(=O)C(O)(c1ccccc1)c1ccccc1 (stereo unspecified) | inactive: -5.07%
COc1cc(SC)ccc1C(=O)NCC1(N(C)C)CCCCC1 | inactive: 0.45%
CC(C)N1C(=O)CC2(CCN(CCOC(=O)C(O)(c3ccccc3)c3ccccc3)CC2)C1=O | inactive: 2.68%
Cc1ccc(C(=O)NCC2(N3CCCCC3)CCCCC2)cc1 | inactive: -3.44%
O=C(NCC1(N2CCCCC2)CCCCC1)c1cc([N+](=O)[O-])ccc1Cl | inactive: 1.97%
CN1[C@@H]2CC[C@H]1CC(OC(=O)C(O)(c1ccccc1)c1ccccc1)C2 (stereo partly specified) | inactive: 7.95%
C=CCN1CCN(CCOC(=O)C(O)(c2ccccc2)c2ccccc2)CC1 | inactive: 7.06%
O=C(NCC1(N2CCCCC2)CCCCC1)c1cc(F)c(F)cc1Cl | inactive: 0.402%
COc1ccc(C(=O)NCC2(N(C)C)CCCCC2)cc1 | inactive: -1.53%
CCN1CCCC(OC(=O)C2(O)c3ccccc3C=Cc3ccccc32)C1 (stereo unspecified) | inactive: 1.01%
Cc1cc(C(=O)NCC2(N3CCCCC3)CCCCC2)ccc1[N+](=O)[O-] | inactive: -21%
O=C(NCC1(N2CCCCC2)CCCCC1)c1cccc(Br)c1 | inactive: -5.26%
Cc1ccccc1C(=O)NCC1(N2CCCCC2)CCCCC1 | inactive: -8.62%
CN(C)c1ccc(C(=O)NCC2(N(C)C)CCCCC2)cc1 | inactive: -0.888%
CN(C)C1CCCC1OC(=O)C(O)(c1ccccc1)c1ccccc1 (stereo unspecified) | inactive: 9.95%
COc1cccc(C(=O)NCC2(N3CCCCC3)CCCCC2)c1 | inactive: 20.5%
COc1ccc(Cl)cc1C(=O)NCC1(N(C)C)CCCCC1 | inactive: -6.13%
O=C(NCC1(N2CCCCC2)CCCCC1)c1cccc(Cl)c1 | inactive: 7.12%
CN(C)C1(CNC(=O)c2ccc(Br)cc2)CCCCC1 | inactive: 3.06%
COc1cc(C(=O)NCC2(N(C)C)CCCCC2)c([N+](=O)[O-])cc1OC | inactive: 7.72%
C=C(C)C#CC(O)(C(=O)OC1CCN(C)CC1)c1ccccc1 (stereo unspecified) | inactive: -0.584%
COc1ccc(Br)c(C(=O)NCC2(N3CCCCC3)CCCCC2)c1 | inactive: -6.81%
CC(C)Oc1ccc(C(=O)NCC2(N(C)C)CCCCC2)cc1 | inactive: -7.24%
O=C(OCCN1CCCC1)C(O)(c1ccccc1)c1ccccc1 | inactive: 5.7%
CN(C)c1cccc(C(=O)NCC2(N(C)C)CCCCC2)c1 | inactive: -10.4%
O=C(OC1CN2CCC1CC2)C(CO)(c1ccccc1)c1ccccc1 (stereo unspecified) | inactive: -18.1%
